These results are taken from PubChem BioAssay AID588358 (NMMLSC, 2011).

Sequences of proteins named here, by UniProt entry; tags and fusion partners are left off.
UniProt P32926, whole entry, looked up: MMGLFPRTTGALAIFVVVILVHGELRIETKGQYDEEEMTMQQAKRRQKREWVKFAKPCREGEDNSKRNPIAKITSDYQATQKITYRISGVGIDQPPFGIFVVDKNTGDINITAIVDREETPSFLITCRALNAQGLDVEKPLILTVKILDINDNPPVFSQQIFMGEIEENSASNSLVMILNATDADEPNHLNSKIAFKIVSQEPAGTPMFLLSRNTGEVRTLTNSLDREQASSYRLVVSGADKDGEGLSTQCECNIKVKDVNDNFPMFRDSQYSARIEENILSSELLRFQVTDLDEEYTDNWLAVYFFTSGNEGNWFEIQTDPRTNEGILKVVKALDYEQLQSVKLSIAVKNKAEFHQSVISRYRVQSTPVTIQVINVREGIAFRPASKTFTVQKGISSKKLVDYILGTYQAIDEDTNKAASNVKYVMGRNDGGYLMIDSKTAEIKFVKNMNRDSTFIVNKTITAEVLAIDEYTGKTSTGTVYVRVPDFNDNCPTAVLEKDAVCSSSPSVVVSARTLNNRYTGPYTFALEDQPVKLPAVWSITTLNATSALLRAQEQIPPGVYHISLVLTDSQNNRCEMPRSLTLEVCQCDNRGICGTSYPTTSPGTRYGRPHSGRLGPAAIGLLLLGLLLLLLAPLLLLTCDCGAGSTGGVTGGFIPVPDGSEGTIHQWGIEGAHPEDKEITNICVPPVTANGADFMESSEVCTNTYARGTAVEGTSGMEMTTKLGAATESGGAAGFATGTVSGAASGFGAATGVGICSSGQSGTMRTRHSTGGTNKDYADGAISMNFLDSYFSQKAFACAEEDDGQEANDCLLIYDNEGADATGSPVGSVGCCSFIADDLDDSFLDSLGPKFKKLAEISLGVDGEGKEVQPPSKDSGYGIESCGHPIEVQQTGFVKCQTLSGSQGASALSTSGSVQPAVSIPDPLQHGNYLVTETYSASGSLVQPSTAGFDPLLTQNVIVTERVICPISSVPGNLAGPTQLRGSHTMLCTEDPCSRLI

The list shows a part of the results, in another mix than the full data. Activity calls are given as the source filed them.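 Rule for the calls: active = binding more than 3 SD below its plate's average and above zero; inconclusive = below that plate limit but binding exactly zero; inactive = the rest.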

The target of this assay is Desmoglein-3 (Homo sapiens) (UniProt P32926). Put plainly: blockers of anti-DSG3 scFv binding – biochemical, bead-based, flow cytometry, scFv-GFP, primary screen (AID 588358).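 Note: hits lower antibody fragment binding to DSG3.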 The following applies: DSG3-coupled beads, at 10 µM, hits give low values.
For `Cc1cc(N(CCCl)CCCl)ccc1C=O`, the binding (percent of control) is inactive: 84.7%.

In the case of `CCCN1CCC(Nc2cc(OC)cc(OC)c2)CC1`, the binding (percent of control) was inactive: 119%.

For `c1ccc(CN2CCC(Nc3ccccc3)CC2)cc1`, the binding (percent of control) was inactive: 111%.

Regarding `CN(C)C1(CNC(=O)c2cccc(C#N)c2)CCCCC1`, the binding (percent of control) was inactive: 81.9%.

Turning to `CC(C)(C)OC(=O)N1CCC(N(C(=O)c2ccccc2)c2ccc(Cl)cc2)CC1`, the binding (percent of control) is inactive: 103%.

For the compound `N#Cc1ccc(C(=O)NCC2(N3CCCCC3)CCCCC2)cc1`, the binding (percent of control) is inactive: 85.1%.

Consider `N/C(=N\O)c1c(N)no[n+]1[O-]`, for which the binding (percent of control) is inactive: 93.4%.

Turning to `CCOC(=O)N1CCC(Nc2ccc(C)cc2)CC1`, the binding (percent of control) was inactive: 118%.

For the compound `COc1ccc(C(=O)NCC2(N3CCOCC3)CCCCC2)cc1OC`, the binding (percent of control) is inactive: 98.3%.

Regarding `CN1CCC(Nc2ccc(Cl)cc2)CC1`, the binding (percent of control) is inactive: 109%.

For the compound `CCC(CO)(C(=O)OC1CN2CCC1CC2)c1ccccc1` (configuration not stated), the binding (percent of control) was inactive: 112%.

Consider `COc1cc(OC)cc(C(=O)NCC2(N3CCOCC3)CCCCC2)c1`, for which the binding (percent of control) was inactive: 97.9%.

Turning to `CCCOc1ccc(C(=O)NCC2(N(C)C)CCCCC2)cc1`, the binding (percent of control) was inactive: 87%.

`O=C(O)C1(Nc2ccccc2)CCN(Cc2ccccc2)CC1`: the binding (percent of control) was inactive: 108%.

In the case of `CC(C)(C)OC(=O)N1CCC(Nc2ccccc2)CC1`, the binding (percent of control) was inactive: 104%.

With `CN1CCC(Nc2ccc(F)c(Cl)c2)CC1`, the binding (percent of control) was inactive: 118%.

Take `CCOc1ncccc1C(=O)NCC1(N2CCOCC2)CCCCC1`: the binding (percent of control) was inactive: 95.8%.

On to `CN(C)c1ccc(C(=O)NCC2(N3CCCCC3)CCCCC2)cc1`, for which the binding (percent of control) was inactive: 121%.

In the case of `Cn1c(=O)[nH]cc(N(CCCl)CCCl)c1=O`, the binding (percent of control) is inactive: 115%.

In the case of `Cc1ccccc1NC1(C#N)CCN(Cc2ccccc2)CC1`, the binding (percent of control) was inactive: 93.1%.

As to `Cc1ccc(NC2(C#N)CCN(Cc3ccccc3)CC2)cc1`, the binding (percent of control) was inactive: 122%.

In the case of `Fc1ccccc1NC1CCN(Cc2ccccc2)CC1`, the binding (percent of control) is inactive: 105%.

Regarding `Cc1ccc(C(=O)NCC2(N3CCCCC3)CCCCC2)o1`, the binding (percent of control) is inactive: 97.1%.

Regarding `COc1cc(OC)cc(C(=O)NCC2(N3CCCCC3)CCCCC2)c1`, the binding (percent of control) was inactive: 112%.

Take `CC(=O)N(c1ccccc1)C1CCNCC1`: the binding (percent of control) is inactive: 93.7%.

As for `CCOC(=O)N1CCC(Nc2cccc(C)c2)CC1`, the binding (percent of control) was inactive: 125%.

Turning to `COc1cc(C(=O)NCC2(N(C)C)CCCCC2)ccc1OC(F)F`, the binding (percent of control) is inactive: 116%.

Consider `CCOC(=O)N1CCC(Nc2ccc(F)cc2)CC1`, for which the binding (percent of control) was inactive: 106%.

Take `COc1ccc(NC2CCN(CCc3ccccc3)CC2)c(OC)c1`: the binding (percent of control) is inactive: 105%.

`CCCCOc1ccc(C(=O)NCC2(N3CCOCC3)CCCCC2)cc1`: the binding (percent of control) was inactive: 101%.

As to `O=P1(N(CCCl)CCCl)SCCCS1`, the binding (percent of control) is inactive: 94.8%.

For `O=C(NCC1(N2CCCCC2)CCCCC1)c1ccc(F)cc1`, the binding (percent of control) is inactive: 96.1%.

With `CCOc1ccc(C)cc1CN(CCCl)CCCl`, the binding (percent of control) is inactive: 109%.

In the case of `CCOC(=O)N1CCC(Nc2ccc(OC)cc2)CC1`, the binding (percent of control) is inactive: 104%.

Consider `COc1ccc(Cl)cc1C(=O)NCC1(N2CCOCC2)CCCCC1`, for which the binding (percent of control) was inactive: 103%.

Turning to `O=C(NCC1(N2CCCCC2)CCCCC1)c1ccc(Cl)s1`, the binding (percent of control) was inactive: 119%.

Take `O=C(OC1CN2CCC1CC2)C1c2ccccc2Oc2ccccc21` (configuration not stated): the binding (percent of control) is inactive: 104%.

`O=C(NCC1(N2CCOCC2)CCCCC1)c1cc2ccccc2o1`: the binding (percent of control) was inactive: 101%.

With `Cc1cc(C)cc(N(C(=O)c2ccccc2)C2CCN(C(=O)OC(C)(C)C)CC2)c1`, the binding (percent of control) is inactive: 79.8%.

As to `O=C(NCC1(N2CCCCC2)CCCCC1)c1ccc(Cl)nc1`, the binding (percent of control) was inactive: 117%.

As for `Cc1cccc(NC2(C#N)CCN(Cc3ccccc3)CC2)c1`, the binding (percent of control) is inactive: 114%.

Consider `CSc1ccccc1C(=O)NCC1(N2CCCCC2)CCCCC1`, for which the binding (percent of control) was inactive: 106%.

On to `O=C(NCC1(N2CCCCC2)CCCCC1)c1cccs1`, for which the binding (percent of control) is inactive: 124%.

With `O=C(NCC1(N2CCCCC2)CCCCC1)c1ccc(=O)[nH]c1`, the binding (percent of control) was inactive: 107%.

`CC(C)(C)OC(=O)N1CCC(N(C(=O)c2ccccc2)c2ccc(F)cc2)CC1`: the binding (percent of control) was inactive: 103%.

In the case of `COc1ccc(C(=O)NCC2(N3CCCCC3)CCCCC2)c(OC)c1OC`, the binding (percent of control) was inactive: 97.2%.

`CCCOc1ccc(C(=O)NCC2(N(C)C)CCCCC2)cc1OC`: the binding (percent of control) was inactive: 93.7%.

As for `Cc1ccc(C(=O)NCC2(N(C)C)CCCCC2)o1`, the binding (percent of control) is inactive: 100%.

With `CN1CCC(Nc2cccc(F)c2)CC1`, the binding (percent of control) was inactive: 102%.

For `O=C(NCC1(N2CCCCC2)CCCCC1)c1cncc(Br)c1`, the binding (percent of control) is inactive: 99.8%.

Consider `O=C(NCC1(N2CCOCC2)CCCCC1)c1cc(F)c(F)cc1Cl`, for which the binding (percent of control) is inactive: 100%.

Turning to `COc1cc(OC)c(C(=O)NCC2(N(C)C)CCCCC2)cc1OC`, the binding (percent of control) was inactive: 96.8%.

For the compound `CN(C)c1cccc(C(=O)NCC2(N3CCCCC3)CCCCC2)c1`, the binding (percent of control) is inactive: 111%.

As to `COc1ccc(CN(CCCl)CCCl)cc1Cl`, the binding (percent of control) was inactive: 105%.

As for `CC(C)c1ccc(C(=O)NCC2(N3CCOCC3)CCCCC2)cc1`, the binding (percent of control) is inactive: 104%.

In the case of `COc1ccc(NC2CCN(C(=O)OC(C)(C)C)CC2)cc1`, the binding (percent of control) was inactive: 101%.

As for `CN1CCN(CCOC(=O)C(O)(c2ccccc2)c2ccccc2)CC1`, the binding (percent of control) is inactive: 99.9%.

Take `O=C(NCC1(N2CCOCC2)CCCCC1)c1cc(=O)[nH]c2ccccc12`: the binding (percent of control) is inactive: 106%.

`O=C(NCC1(N2CCCCC2)CCCCC1)c1cccc([N+](=O)[O-])c1`: the binding (percent of control) was inactive: 102%.

Turning to `CSc1ccc(C(=O)NCC2(N3CCOCC3)CCCCC2)cc1`, the binding (percent of control) was inactive: 101%.

Regarding `N#CC1(Nc2ccccc2)CCN(CCc2ccccc2)CC1`, the binding (percent of control) was inactive: 108%.

For `CCN1CCC(Nc2ccc(Cl)cc2)CC1`, the binding (percent of control) was inactive: 110%.
